Data as given in ChEMBL document CHEMBL1145356, “Discovery of new C3aR ligands. Part 1: arginine derivatives” (Bioorg Med Chem Lett, 2007).

How the values were obtained:
[1] = target: T1, C3a anaphylatoxin chemotactic receptor (Homo sapiens, UniProt Q16581); experiment: Antagonist activity at C3aR; format: functional
T1 sequence (Q16581 whole entry): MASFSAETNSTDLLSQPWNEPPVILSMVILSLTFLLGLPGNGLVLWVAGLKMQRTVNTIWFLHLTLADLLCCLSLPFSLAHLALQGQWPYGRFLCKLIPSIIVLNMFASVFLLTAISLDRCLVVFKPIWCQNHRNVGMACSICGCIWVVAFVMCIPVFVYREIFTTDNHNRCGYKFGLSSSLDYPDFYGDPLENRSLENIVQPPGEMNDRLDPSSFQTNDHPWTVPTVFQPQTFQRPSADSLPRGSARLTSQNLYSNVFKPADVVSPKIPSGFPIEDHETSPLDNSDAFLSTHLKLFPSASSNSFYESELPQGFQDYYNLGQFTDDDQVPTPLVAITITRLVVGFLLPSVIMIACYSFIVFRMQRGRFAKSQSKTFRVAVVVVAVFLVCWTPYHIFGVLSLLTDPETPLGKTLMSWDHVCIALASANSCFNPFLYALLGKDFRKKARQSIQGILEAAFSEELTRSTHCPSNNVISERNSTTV

[2] = target: T1, C3a anaphylatoxin chemotactic receptor; experiment: Inhibition of human C3a receptor expressed on HMC1 cells by SPA assay; format: cell-based

N=C(N)NCCC[C@H](NC(=O)c1ccc(C(c2ccccc2)c2ccccc2)o1)C(=O)O
EC50 [1]: 158 nM | IC50 [2]: 63.1 nM
